Like-named read-outs stand apart in the source and are kept apart here.
Test system: rats
Settings: IM
[1] = dose 0.6 µM/kg, base and esters in sesame oil, HCl in 0.9% saline

SMILES	Analgesic duration (dose 0.3 µM/kg, sesame oil) [h]	Analgesic duration [1] [h]
COC12CCC3(CC1C(C)(O)C(C)(C)C)C1Cc4ccc(OC(=O)CCCCCCCCC(=O)Oc5ccc6c7c5OC5C8(OC)CCC9(CC8C(C)(O)C(C)(C)C)C(C6)N(CC6CC6)CCC759)c5c4C3(CCN1CC1CC1)C2O5 (stereo not shown)	96	–
CCCCCCCCCCCCCCCC(=O)Oc1ccc2c3c1OC1C4(OC)CCC5(CC4C(C)(O)C(C)(C)C)C(C2)N(CC2CC2)CCC315 (stereo not shown)	–	96
CCCCCCC(=O)Oc1ccc2c3c1OC1C4(OC)CCC5(CC4C(C)(O)C(C)(C)C)C(C2)N(CC2CC2)CCC315 (stereo not shown)	–	72
COC12CCC3(CC1C(C)(O)C(C)(C)C)C1Cc4ccc(OC(=O)c5ccccc5)c5c4C3(CCN1CC1CC1)C2O5 (stereo not shown)	–	72
CCCCCCCCCC(=O)Oc1ccc2c3c1OC1C4(OC)CCC5(CC4C(C)(O)C(C)(C)C)C(C2)N(CC2CC2)CCC315 (stereo not shown)	–	96
COC12CCC3(CC1C(C)(O)C(C)(C)C)C1Cc4ccc(OC(=O)CCCCCC(=O)Oc5ccc6c7c5OC5C8(OC)CCC9(CC8C(C)(O)C(C)(C)C)C(C6)N(CC6CC6)CCC759)c5c4C3(CCN1CC1CC1)C2O5 (stereo not shown)	72	–
COC12CCC3(CC1C(C)(O)C(C)(C)C)C1Cc4ccc(OC(=O)C(C)(C)C)c5c4C3(CCN1CC1CC1)C2O5 (stereo not shown)	–	48

From patent publication EP1422230B1 (priority 2002, dated 2004)
